The test addresses T1, Tyrosine-protein phosphatase non-receptor type 1 (Homo sapiens, UniProt P18031).
T1 sequence (P18031 whole entry): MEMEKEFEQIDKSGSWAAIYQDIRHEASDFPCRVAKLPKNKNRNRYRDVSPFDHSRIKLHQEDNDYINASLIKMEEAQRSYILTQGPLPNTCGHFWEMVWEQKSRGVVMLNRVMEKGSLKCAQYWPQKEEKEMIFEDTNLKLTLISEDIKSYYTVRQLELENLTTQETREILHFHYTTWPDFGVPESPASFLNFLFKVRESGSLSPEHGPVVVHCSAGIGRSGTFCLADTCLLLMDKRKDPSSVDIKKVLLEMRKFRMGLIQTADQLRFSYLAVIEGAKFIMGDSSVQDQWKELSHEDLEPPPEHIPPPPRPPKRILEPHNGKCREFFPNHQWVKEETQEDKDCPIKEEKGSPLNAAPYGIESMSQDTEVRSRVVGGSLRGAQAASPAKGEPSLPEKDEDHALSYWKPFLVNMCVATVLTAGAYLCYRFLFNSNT
Kind of test: Inhibition of human recombinant PTP1B.

On to `CC1(C)C2CC[C@]3(C)[C@H](C(=O)C=C4[C@H]5C[C@@](C)(C(=O)O)CC[C@]5(C)CC[C@]43C)[C@@]2(C)CC[C@@H]1O` (some centres not stated), for which the IC50 – broadly, the midpoint of a concentration-inhibition curve – was found to be 15.6 µM.
With `CC1(C)C2CC[C@]3(C)[C@H](C(=O)C=C4[C@@H]5C[C@@](C)(C(=O)O)CC[C@]5(C)CC[C@]43C)[C@@]2(C)CC[C@@H]1O` (some centres not stated), the IC50 is 13.8 µM.

(Values after ChEMBL document CHEMBL1147808, “Protein tyrosine phosphatase 1B inhibitory activity of triterpenes isolated from Astilbe koreana” (Bioorg Med Chem Lett, 2006).)
